This is an account of results in ChEMBL document CHEMBL5506012, “Targeting Myeloid Leukemia-1 in Cancer Therapy: Advances and Directions” (J Med Chem, 2024).

By UniProt entry, the sequences of proteins in these tests, tags left out.
UniProt P10415, whole entry: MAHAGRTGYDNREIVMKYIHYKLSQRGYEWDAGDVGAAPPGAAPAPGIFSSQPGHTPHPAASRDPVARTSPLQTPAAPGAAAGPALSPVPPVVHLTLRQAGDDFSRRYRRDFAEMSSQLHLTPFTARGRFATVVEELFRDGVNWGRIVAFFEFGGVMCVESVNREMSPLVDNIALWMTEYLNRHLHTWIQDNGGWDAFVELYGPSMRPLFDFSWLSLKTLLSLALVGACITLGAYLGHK

This assay deals with Apoptosis regulator Bcl-2 (Homo sapiens, UniProt P10415). Nature of the assay: Binding affinity to human recombinant Bcl-2 assessed as inhibition constant by fluorescence polarization assay.

SMILES strings stand for the structures. Bounds are passed on as bounds.

The Ki is the equilibrium dissociation constant of an inhibitor or competing ligand from its target. `CC1(C)CCC(c2ccc(Cl)cc2)=C(CN2CCN(c3ccc(C(=O)NS(=O)(=O)c4ccc(N[C@H](CCN5CCOCC5)CSc5ccccc5)c(S(=O)(=O)C(F)(F)F)c4)cc3)CC2)C1` [NAVITOCLAX]: the Ki was under 1 nM.
